Assay [1] addresses T1, αIIbβ3 (Homo sapiens, UniProt P05106+P08514). As to the kind of experiment: Displacement of labeled fibrinogen from preactivated αIIbβ3-K562 cells (flow cytometry). The following applies: increasing concentrations; FIGS. 2 and 6B.
Assay [2] deals with T1, αIIbβ3. As to the kind of experiment: Displacement of Alexa488-labeled Hr10 binding to inactive and PT-25-activated αIIbβ3-K562 cells. The conditions noted are these: comparison of inactive and PT-25-activated αIIbβ3-K562.
Assay [3] deals with human platelets. As to the kind of experiment: Platelet aggregation in whole human blood by impedance (Chrono-Log 700). The conditions noted are these: for Inhibition of ADP-induced platelet aggregation in whole blood: ADP 20 μM. In kind it is cell-based.
Assay [4] has as its target T1, αIIbβ3. As to the kind of experiment: Binding of conformation-sensitive mAbs AP5 / LIBS-1 to human platelets. In kind it is cell-based.
Assay [5] deals with human platelets. The assay is described as follows: Thrombin-induced clot retraction in human platelet-rich plasma. The format is cell-based. The conditions noted are these: tirofiban 1.5 μM, m-tirofiban 15 μM; α-thrombin 0.5 unit/mL; FIG. 5.

Protein sequences, listed by entry. Tags and fused reporters are not part of them. Residues count along the entry.
UniProt P05106, 27-788 limits assumed: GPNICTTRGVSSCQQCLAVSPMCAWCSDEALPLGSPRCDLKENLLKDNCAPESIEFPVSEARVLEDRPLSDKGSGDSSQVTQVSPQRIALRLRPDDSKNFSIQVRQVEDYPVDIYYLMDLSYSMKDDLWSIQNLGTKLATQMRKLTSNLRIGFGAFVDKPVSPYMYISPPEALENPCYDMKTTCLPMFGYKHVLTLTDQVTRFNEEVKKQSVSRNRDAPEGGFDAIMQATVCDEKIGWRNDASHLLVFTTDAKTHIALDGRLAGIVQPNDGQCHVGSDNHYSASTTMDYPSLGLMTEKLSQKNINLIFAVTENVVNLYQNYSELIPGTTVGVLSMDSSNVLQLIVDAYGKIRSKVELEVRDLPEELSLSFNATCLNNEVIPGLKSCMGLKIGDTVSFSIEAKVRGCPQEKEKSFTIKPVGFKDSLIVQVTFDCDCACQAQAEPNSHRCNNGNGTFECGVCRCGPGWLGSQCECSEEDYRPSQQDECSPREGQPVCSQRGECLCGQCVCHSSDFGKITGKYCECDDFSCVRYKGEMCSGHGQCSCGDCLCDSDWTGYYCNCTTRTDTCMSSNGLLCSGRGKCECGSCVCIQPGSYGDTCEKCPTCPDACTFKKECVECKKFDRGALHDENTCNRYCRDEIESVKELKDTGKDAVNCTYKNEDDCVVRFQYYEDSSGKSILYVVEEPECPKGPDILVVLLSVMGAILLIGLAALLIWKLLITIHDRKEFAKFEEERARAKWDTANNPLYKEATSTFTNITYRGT
UniProt P08514, 32-887 limits assumed: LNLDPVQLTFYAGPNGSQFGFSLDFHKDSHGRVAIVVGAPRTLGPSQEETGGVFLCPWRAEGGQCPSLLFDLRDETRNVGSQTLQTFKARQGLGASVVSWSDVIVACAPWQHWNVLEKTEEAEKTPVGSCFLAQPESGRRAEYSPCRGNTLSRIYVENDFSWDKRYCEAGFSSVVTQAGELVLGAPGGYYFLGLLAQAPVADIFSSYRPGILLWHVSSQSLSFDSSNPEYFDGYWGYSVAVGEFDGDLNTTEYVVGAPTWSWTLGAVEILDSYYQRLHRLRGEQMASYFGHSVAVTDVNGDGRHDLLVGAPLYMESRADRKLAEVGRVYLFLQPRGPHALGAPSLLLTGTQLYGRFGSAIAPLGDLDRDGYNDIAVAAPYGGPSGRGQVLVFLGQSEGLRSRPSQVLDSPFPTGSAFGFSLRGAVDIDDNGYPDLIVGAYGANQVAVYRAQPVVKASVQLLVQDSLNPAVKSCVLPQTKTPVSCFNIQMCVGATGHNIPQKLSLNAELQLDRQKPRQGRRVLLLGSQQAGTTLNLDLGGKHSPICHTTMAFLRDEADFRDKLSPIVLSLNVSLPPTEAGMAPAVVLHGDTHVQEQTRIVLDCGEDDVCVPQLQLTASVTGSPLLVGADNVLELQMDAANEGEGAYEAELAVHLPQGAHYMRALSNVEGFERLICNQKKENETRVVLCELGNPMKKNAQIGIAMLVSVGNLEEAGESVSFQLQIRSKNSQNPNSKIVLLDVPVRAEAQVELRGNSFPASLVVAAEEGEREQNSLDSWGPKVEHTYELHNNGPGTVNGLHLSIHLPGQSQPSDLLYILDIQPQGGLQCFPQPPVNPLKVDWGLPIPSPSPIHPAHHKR
UniProt P08514, 891-1039 partner limits assumed: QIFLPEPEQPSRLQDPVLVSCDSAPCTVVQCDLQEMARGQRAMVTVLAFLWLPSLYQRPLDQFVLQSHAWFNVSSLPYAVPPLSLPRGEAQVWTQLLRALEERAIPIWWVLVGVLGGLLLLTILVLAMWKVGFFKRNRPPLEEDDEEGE

In the case of `O=C(N[C@@H](Cc1ccc(OCCCCC2CCNCC2)cc1)C(=O)O)c1nc2ccccc2o1`, in assay [1], the “Inhibition of APC-fibrinogen binding to K562-αIIbβ3” value is “inhibited binding of APC-fibrinogen to K562-αIIbβ3 in a dose dependent manner”. The “Binding affinity to inactive versus active αIIbβ3” value in assay [2] was “showed equivalent binding affinities to inactive and active αIIbβ3”. Further, the figures for the “Inhibition of ADP-induced platelet aggregation in whole blood” value in assay [3] and in assay [3] (listed as M-tirofiban) were “inhibited platelet aggregation in a dose-dependent manner but with lower affinity compared to tirofiban” and “equivalent to that of the drug eptifibatide”, respectively. Also, the “Inhibition of human platelet aggregation, pilot study” value in assay [3] (pilot study comparing Compounds 1-3) is given as “more effective than Compounds 1-2”. Further, in assay [4] (M-tirofiban 1.5 μM added before or after ADP 5 μM, FIG. 6D), the “Effect on ADP-induced AP5 expression” value is listed as “suppressed ADP-induced AP5 expression”. Also, in assay [4] (human platelets in PRP, saturating concentrations, absence or presence of 20 μM ADP, FIG. 4), the “Activating conformational changes in αIIbβ3 reported by AP5 binding” value is reported as “did not induce the activating conformational changes in αIIbβ3”. The “Clot retraction induced by α-thrombin (photographs)” value in assay [5] is “reduced clot retraction minimally”.

The values are drawn from patent US11685717B2, “Polypeptide integrin antagonists” (The General Hospital Corporation, priority 2018, dated 2023).
